Results published in patent US8969405B2, “Anticancer compounds and methods of making and using same” (St. Jude Children's Research Hospital, priority 2008, dated 2015).

Tested on: WiDr colorectal cancer cell line
Test: In vitro cytotoxicity analysis (XTT), 72-hour exposure
Assay type: cell-based
Conditions: Homo sapiens, read-out: Cytotoxicity IC50
Protocol: Briefly, cell lines were seeded at various cell densities depending on the cell type.

`CC(/C=C/[C@@H]1C[C@]2(CO2)CC(C)(C)O1)=C\C[C@H]1CC[C@@H](NC(=O)/C=C\[C@H](C)OC(=O)N2CCN(C3CCCCCC3)CC2)CC1` [Compound 24, (S,Z)-5-((1R,4R)-4-((2E,4E)-5-((3R,5S)-7,7-dimethyl-1,6-dioxaspiro[2.5]octan-5-yl)-3-methylpenta-2,4-dienyl)cyclohexylamino)-5-oxopent-3-en-2-yl 4-cycloheptylpiperazine-1-carboxylate] showed an IC50 of 4 to 5 µM.
